Source: patent US5461036A, “Spicamycin derivatives and their use as anticancer agents” (priority 1991, dated 1995)

Test system: human colon cancer (COL-1)
Type: in vivo, mouse
Details: /minimum effective dose (effective: TGIR≥50)
Procedure: (2) Method for measuring the antitumor effect on human colon cancer (COL-1)
COL-1, a human colon cancer, was transplanted subcutaneously into nude mice. When the tumor had grown to a volume of about 100 mm^3, the nude mice were divided into groups of 5 animals so that the average tumor volumes of respective groups were equalized. The respective spicamycin derivatives were administered to test groups at their MTDs, while physiological saline (solvent) containing 1% DMSO and 1% Cremophor EL® was administered to the control group. […] RV is expressed as RV =Vn/Vo where Vn is the tumor volume on day n and Vo is the initial tumor volume at the time treatment was commenced.

CCCCCCCCC/C=C/C(=O)NCC(=O)N[C@@H]1[C@@H](O)[C@@H](O)[C@@H](Nc2ncnc3[nH]cnc23)O[C@H]1C(O)CO (stereo partly drawn) [SPK86, 6-[4'-N-(N'-trans-2-dodecenoylglycyl)spicaminyl-amino]purine]
Therapeutic index: 4
